Experimental data published in patent publication US20260216325A1, “NOVEL IMIDAZOPYRIMIDINE COMPOUND AND USES THEREOF” (The Children's Medical Center Corporation, priority 2023, published 2026).

Tested on: human adult PBMCs
Settings: compared to PVP-037.1 and R848

Cc1cnc2nc(-c3ccc(C)c(NC(=O)c4ccc(CN)cc4C(F)(F)F)c3)cn2c1 [Compound (1), 4-(Aminomethyl)-N-(2-methyl-5-(6-methylimidazo[1,2-a]pyrimidin-2-yl)phenyl)-2-(trifluoromethyl) benzamide]
EC50 (TNF induction) (human PBMC in vitro): lower EC50 | TNF production / TNF-inducing efficacy (human adult PBMCs, 18 hrs, various concentrations): greater TNF-inducing efficacy
